The source of these data is patent US9056111B1, “Selective efflux inhibitors and related pharmaceutical compositions and methods of treatment” (STC.UNM, priority 2011, dated 2015).

Chains of the proteins cited; added tags and fusions are not shown.
UniProt P08183, whole entry: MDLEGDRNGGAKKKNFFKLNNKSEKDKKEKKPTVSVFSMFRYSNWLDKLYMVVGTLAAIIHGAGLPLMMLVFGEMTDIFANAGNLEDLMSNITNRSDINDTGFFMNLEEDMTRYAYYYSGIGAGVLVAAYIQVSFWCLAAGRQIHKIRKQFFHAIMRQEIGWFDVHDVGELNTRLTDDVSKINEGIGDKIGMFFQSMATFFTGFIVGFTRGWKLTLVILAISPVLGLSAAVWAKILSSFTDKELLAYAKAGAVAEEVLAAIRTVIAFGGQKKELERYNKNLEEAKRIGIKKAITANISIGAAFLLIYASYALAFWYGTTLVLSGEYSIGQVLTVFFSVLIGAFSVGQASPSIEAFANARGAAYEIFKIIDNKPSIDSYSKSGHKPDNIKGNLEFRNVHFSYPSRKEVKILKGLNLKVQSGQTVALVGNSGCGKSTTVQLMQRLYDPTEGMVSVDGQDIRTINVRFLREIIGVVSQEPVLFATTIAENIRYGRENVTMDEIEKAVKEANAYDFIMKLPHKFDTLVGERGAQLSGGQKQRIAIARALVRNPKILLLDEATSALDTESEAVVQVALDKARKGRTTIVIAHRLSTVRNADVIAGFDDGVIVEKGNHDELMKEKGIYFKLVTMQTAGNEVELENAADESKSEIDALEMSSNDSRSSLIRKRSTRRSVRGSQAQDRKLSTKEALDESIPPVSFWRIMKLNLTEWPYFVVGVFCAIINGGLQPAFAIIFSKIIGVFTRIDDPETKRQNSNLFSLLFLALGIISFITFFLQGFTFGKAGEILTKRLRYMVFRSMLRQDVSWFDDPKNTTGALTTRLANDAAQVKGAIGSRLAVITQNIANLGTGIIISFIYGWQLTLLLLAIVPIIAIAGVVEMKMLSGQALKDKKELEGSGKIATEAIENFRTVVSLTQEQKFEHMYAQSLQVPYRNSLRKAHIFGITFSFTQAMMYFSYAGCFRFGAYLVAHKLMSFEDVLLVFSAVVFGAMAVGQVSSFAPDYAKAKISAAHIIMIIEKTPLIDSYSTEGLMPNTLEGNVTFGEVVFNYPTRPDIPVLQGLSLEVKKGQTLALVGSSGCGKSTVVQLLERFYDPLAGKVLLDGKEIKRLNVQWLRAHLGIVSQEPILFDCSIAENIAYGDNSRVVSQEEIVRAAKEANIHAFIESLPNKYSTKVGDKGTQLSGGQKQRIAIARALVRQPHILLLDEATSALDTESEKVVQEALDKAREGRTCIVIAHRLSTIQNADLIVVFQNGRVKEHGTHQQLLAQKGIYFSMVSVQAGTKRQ

The target in this series is ABCB1 (Homo sapiens, UniProt P08183). The procedure: The HyperCyt® high throughput flow cytometry platform (IntelliCyt™, Albuquerque, N. Mex.) was used to sequentially sample cells from 384-well microplates (2 μL/sample) for flow cytometer presentation at a rate of 40 samples per minute.^62-63 Flow cytometric analysis was performed on a CyAn™ flow cytometer (Beckman-Coulter, Fullerton, Calif.). The resulting time-gated data files were analyzed with HyperView® software to determine compound activity in each well. Inhibition response curves were fitted by Prism® software (GraphPad Software, Inc., San Diego, Calif.) using nonlinear least-squares regression in a sigmoidal dose response model with variable slope, also known as the four-parameter logistic equation. This type of time-gated flow cytometric data analysis was described in detail for a previous ABC transporter screen from our group.^56
The assay provider's ABCB1 over-expressing Jurkat-DNR cell line is used for confirmatory follow up instead of the CCRF-Adr cells. Each cell line (Jurkat-DNR and Ig-MXP3) is run separately against all compounds (no differential cell staining) in dose response. […] The plate is rotated end-over-end at 4 RPM and 25° C. for 30 minutes and then cell samples are analyzed and flow cytometric data of light scatter and fluorescence emission at 530+/−20 nm (488 nm excitation, FL1) are collected. […]

Regarding `COc1ccc2c3c([nH]c2c1)[C@H](CC(C)C)N1C(=O)[C@H](CCC(=O)OC(C)(C)C)NC(=O)[C@@H]1C3` [Compound 4, reference compound], the 50% inhibitory concentration (IC50) was greater than 50 µM and the “efflux inhibition activity ABCB1” value was “no activity”.
